The assay has as its target C-terminal FLAG-tagged GTPBP5 (GTPBP5::FLAG) (human) (UniProt Q9H4K7). Briefly: cryo-EM structure; GTPBP5IP mt-LSU assembly intermediate: native complex from mitochondria of HEK293T cells expressing GTPBP5::FLAG, isolated on anti-FLAG M2 agarose and eluted with 3x FLAG peptide; 3.1 A reconstruction (3.2 A for the mtEF-Tu- and MTG1-containing particles). As to conditions: scale: % of the GTPBP5-containing pre-ribosomal particles.

Amino acid sequences for entries named in this document (tags omitted). A change or cut given only in a name is not applied to a line headed by its entry.
UniProt Q9H4K7: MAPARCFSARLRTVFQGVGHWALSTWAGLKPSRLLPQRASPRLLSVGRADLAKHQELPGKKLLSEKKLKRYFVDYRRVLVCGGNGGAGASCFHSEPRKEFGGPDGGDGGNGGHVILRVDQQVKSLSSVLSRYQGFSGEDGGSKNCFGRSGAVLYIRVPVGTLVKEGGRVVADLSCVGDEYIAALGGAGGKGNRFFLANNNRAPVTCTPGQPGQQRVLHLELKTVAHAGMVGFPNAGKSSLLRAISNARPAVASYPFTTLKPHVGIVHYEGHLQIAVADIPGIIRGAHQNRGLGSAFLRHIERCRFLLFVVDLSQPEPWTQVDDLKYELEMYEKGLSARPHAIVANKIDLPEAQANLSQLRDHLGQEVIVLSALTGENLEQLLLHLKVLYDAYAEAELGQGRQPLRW

Experimental findings from paper PMC8209036, “Structural basis for late maturation steps of the human mitoribosomal large subunit” (Nature Communications, 2021) are described below.

For “mitochondrial elongation factor mtEF-Tu (from UniProt P49411 47-455) (natural protein; other documents disagree on this pair)”, the share of the GTPBP5-containing pre-ribosomal particles that hold mtEF-Tu worked out at 75.
